Test: Pharmacokinetics of platinum in orthotopic CRC mice
Format: in vivo, mouse
Settings: single i.v. injection
Source text: The orthotopic CT26-FL3 colorectal tumor model was established as previously described^31.

Question: With `O=C1[O][Pt]2([NH][C@@H]3CCCC[C@H]3[NH]2)[O]C1=O` [OxP, oxaliplatin] as the compound, how does the “time post injection over which platinum remained in the plasma” value read?
Answer: less than 4 h
